Literature values in patent publication US10954506B2 (priority 2013, dated 2021).

Details: in vivo

## 2-pyridine aldoxime methyl chloride [2-PAM]
  elimination t 1/2 from blood to urine: 1 h
